Data reported in ChEMBL document CHEMBL1141522, “Reduced cardiac side-effect potential by introduction of polar groups: discovery of NIBR-1282, an orally bioavailable CCR5 antagonist which is active in vivo” (Bioorg Med Chem Lett, 2008).

Protein sequences, listed by entry. Tags and fused reporters are not part of them. Lines headed by an entry give the natural chain unless they say otherwise; changes in a name come on top.
UniProt Q12809: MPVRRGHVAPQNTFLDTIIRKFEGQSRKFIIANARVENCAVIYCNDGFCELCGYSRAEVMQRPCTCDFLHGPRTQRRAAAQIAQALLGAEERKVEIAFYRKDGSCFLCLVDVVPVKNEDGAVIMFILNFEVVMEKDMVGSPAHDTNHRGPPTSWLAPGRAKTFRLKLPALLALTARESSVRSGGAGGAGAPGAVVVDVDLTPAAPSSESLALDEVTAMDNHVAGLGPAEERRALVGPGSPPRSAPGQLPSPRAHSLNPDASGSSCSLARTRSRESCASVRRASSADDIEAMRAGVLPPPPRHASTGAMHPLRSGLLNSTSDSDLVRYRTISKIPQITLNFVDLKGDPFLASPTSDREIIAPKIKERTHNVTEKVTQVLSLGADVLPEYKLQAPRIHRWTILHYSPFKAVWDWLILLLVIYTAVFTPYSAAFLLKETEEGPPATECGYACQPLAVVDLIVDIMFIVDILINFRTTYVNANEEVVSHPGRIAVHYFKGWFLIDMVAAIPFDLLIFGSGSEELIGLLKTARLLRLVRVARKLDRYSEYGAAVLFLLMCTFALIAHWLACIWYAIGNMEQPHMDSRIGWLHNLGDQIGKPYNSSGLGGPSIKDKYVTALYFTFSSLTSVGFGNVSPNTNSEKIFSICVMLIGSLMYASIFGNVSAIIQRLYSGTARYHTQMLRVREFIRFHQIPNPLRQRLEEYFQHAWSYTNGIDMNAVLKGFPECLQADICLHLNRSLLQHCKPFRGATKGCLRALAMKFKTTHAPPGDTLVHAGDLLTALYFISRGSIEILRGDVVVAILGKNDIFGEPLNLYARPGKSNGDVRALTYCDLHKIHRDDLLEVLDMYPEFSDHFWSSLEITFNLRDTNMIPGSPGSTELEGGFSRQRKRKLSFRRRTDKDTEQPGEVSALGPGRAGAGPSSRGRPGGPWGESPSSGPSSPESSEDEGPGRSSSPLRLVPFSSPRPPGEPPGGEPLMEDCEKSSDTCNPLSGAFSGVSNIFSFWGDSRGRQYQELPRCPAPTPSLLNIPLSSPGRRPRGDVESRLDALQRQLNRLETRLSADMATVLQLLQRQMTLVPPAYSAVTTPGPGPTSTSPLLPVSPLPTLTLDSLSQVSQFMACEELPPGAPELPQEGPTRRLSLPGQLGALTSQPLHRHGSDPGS

Target: Voltage-gated inwardly rectifying potassium channel KCNH2 (Homo sapiens, UniProt Q12809)
Experiment: Displacement of [3H]dofetilide from human ERG expressed in HEK293 cell membranes

For `Cc1cccnc1C(=O)N1CCC(C)(N2CCC(N(c3ccccc3)c3cccnc3)CC2)CC1`, which IC50 is on record?
Its IC50 is 0.41 µM.
